Values of other authors in PMC4624855.
pKd: −log10 of the molar value.

Chains of the proteins cited; added tags and fusions are not shown.
UniProt P15692, whole entry: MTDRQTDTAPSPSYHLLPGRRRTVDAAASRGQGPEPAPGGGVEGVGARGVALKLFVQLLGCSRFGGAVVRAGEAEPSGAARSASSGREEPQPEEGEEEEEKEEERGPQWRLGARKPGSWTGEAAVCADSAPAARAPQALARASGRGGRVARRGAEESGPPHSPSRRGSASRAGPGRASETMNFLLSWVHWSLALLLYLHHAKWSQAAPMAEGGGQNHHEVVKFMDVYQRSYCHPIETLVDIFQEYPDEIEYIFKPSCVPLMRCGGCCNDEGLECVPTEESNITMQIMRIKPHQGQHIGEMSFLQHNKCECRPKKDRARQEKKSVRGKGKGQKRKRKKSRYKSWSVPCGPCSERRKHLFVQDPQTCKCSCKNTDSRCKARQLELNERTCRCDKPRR

Molecular target: VEGFA (Homo sapiens) (UniProt P15692)

pKd: 10.24
Substance: Bevacizumab Fab
